The chains are these.
B1: 21-31-04-T01-N001 (peptide)
peptide: EVCWDCFMMEDGTCA
modifications: Cys 3, Cys 6 and Cys 14 joined by thioether linkages to a 1,3,5-tris(methylene)benzene scaffold (from TBMB)
notes: Bicyclic peptide on TBMB scaffold, all thioether
B2: 21-31-N003 (peptide)
peptide: CMVCHMMEDGTC
modifications: N-terminal acetyl; Cys 1, 4 and 12 joined by thioether linkages to TBMB scaffold

Sequences of proteins named here, by UniProt entry; tags and fusion partners are left off. Residues count along the entry.
UniProt Q04609, 44-750 limits assumed: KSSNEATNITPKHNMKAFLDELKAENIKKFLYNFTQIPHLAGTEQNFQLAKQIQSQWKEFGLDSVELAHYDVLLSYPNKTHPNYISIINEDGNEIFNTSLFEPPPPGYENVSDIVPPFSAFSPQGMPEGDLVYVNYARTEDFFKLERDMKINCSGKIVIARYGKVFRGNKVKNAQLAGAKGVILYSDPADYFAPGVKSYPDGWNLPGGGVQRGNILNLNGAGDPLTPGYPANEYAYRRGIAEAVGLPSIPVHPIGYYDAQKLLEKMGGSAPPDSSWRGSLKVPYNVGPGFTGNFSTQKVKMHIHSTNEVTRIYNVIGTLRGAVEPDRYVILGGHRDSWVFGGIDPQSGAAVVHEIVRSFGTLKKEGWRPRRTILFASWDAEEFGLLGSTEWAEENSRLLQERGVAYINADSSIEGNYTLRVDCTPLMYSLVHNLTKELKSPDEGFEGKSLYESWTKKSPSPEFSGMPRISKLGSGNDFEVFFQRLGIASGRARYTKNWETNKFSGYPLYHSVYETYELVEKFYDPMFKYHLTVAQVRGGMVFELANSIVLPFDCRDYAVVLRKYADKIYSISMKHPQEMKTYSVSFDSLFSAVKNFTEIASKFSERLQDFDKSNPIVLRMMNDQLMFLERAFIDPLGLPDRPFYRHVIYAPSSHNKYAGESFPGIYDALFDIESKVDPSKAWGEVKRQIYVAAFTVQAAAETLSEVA

From US20220194983A1 (Bicycle, published 2022) come the findings set out here.

The target of this assay is T1, prostate-specific membrane antigen (PSMA) (human, UniProt Q04609 44-750, limits assumed).
T1 construct: also called Glutamate carboxypeptidase II; GCPII
Nature of the assay: fluorescence polarization, FP (h).
Regarding CEECLTLEDGTCA (Cys 1, 4 and 12 joined by thioether linkages to TBMB scaffold) [21-31-02-N001], the affinity corresponds to a Ki of 28 nM.

In turn, B1 showed a Ki of 2.2 nM. This Ki is about 13-fold lower than that of the molecule before.

Molecule ACMVCHMMEDGTCAGASPAAPSAPP (Cys 2, 5 and 13 joined by thioether linkages to TBMB scaffold) [21-31-N004] registered an inhibition constant (Ki) of 95.5 nM.

Consider LCMECYMMEDGTCA (Cys 2, 5 and 13 joined by thioether linkages to TBMB scaffold) [21-31-12-T01-N001], for which the inhibitory constant (Ki) is 7.6 nM.

CEECFRLEDGTCA (Cys 1, 4 and 12 joined by thioether linkages to TBMB scaffold) [21-31-03-N001] registered a Ki of 36.5 nM.

B2 gave a Ki of 182 nM.

In turn, SVCRECYMMEDGTCA (Cys 3, 6 and 14 joined by thioether linkages to TBMB scaffold) [21-31-07-T01-N001] yielded an inhibition constant Ki of 13 nM.
